From ChEMBL document CHEMBL5725257, “Augmenting moieties for anti-inflammatory compounds” (2016)

The chains behind the UniProt entries cited, without tags or fusion partners. Residues count along the entry.
UniProt O42275, 24-633 limits assumed: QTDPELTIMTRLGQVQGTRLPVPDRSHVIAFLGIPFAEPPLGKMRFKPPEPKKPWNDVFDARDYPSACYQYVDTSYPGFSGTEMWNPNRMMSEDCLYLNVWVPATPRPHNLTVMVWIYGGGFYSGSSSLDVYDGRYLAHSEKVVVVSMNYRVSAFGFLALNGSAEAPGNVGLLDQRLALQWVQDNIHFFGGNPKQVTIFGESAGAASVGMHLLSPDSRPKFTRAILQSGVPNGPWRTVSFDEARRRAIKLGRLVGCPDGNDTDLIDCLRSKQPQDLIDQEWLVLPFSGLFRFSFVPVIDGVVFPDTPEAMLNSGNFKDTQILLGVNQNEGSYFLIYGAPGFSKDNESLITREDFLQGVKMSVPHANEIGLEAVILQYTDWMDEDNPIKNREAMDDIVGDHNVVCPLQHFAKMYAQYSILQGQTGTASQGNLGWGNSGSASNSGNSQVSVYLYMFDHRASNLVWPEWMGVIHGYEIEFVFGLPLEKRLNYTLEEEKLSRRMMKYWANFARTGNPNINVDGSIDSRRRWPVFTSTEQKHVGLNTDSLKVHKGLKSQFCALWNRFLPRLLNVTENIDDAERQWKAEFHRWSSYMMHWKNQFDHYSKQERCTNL

target: Acetylcholinesterase (Electrophorus electricus, UniProt O42275); assay: Ellman Assay: The modified Ellman assay for inhibition of acetylcholinesterase (AChE) and the mouse ear vesication assay (MEVA) have been described in detail by us (see S. C. Young et al, J Appl Tox, 2012, 32: 135-141). AChE (Type V-S from electrophorus electricus), acetylthiocholine iodide (ATChI), 5,5′-dithiobis(2-nitrobenzoic acid) (DTNB) and tacrine from EMD Chemicals (Gibbstown, N.J.). Cholin

First: COc1ccc2cc([C@H](C)C(=O)N[C@H](C(=O)OCCC(C)(C)C)C(C)C)ccc2c1
Second: CC(C)Cc1ccc(C(C)C(=O)N[C@H](C(=O)OCCC(C)(C)C)C(C)C)cc1 (stereo partly specified)
The IC50 of the first is 2.1-fold higher: 18.6 µM for the first, 8.91 µM for the second. The second is the more potent here.

Compared with CC(C)Cc1ccc(C(C)C(=O)NCC(=O)OCCC(C)(C)C)cc1 (stereo unspecified), CC(C)Cc1ccc(C(C)C(=O)N[C@@H](Cc2ccccc2)C(=O)OCCC(C)(C)C)cc1 (stereo partly specified) is 6.4-fold lower in IC50: 27.9 µM for the first, 4.34 µM for the second. The second is the more potent here.

Going from COc1ccc2c(c1)c(CC(=O)NCC(=O)OCCC(C)(C)C)c(C)n2C(=O)c1ccc(Cl)cc1 to CC(C)(C)CCOC(=O)[C@@H]1CCCN1C(=O)Cc1ccccc1Nc1c(Cl)cccc1Cl, the IC50 rises from 6.63 µM to 15.4 µM (2.3-fold).
